System: MelaKuits reconstructed human pigmented LSE model
Test: Inhibition of melanin in a living skin-equivalent (LSE) model
Assay type: cell-based
Conditions: 5 μM; UVB-exposed pigmented LSE; the lower the better
Description: Details of the test are as follows:
Materials: • MelaKuits®, a reconstructed human pigmented LSE model, derived from 3D culture of normal human epidermal keratinocytes and melanocytes from Asian donors.
The pigmented LSE model was exposed to UVB (50 mJ/cm^2) for seven consecutive days day at periodic intervals of 24 hours to stimulate the synthesis of melanin. The extracts were applied topically on each LSE model on day 4 and day 6 with an interval of 48 hours for refreshing. For comparison, a blank experiment was carried out in which the LSE was neither exposed to UV radiation nor was any extract applied thereon. A control experiment was also carried out in which the LSE model was exposed to UV radiation, but no other treatment was followed.
On day 8, the appearance of each LSE model was assessed by photographing them. Thereafter, all the models subjected to the test were separated from their respective inserts and placed on a white plastic plate with the stratum corneum side facing up. The luminance (L*) value was read using a spectrophotometer CM700 (Konica-Minolta). For each model, the luminance was measured thrice, and the mean value was calculated for comparison.

## Atractylenolide I [AT-1]
  Melanin content as % of control: 94.9 % of control

Source: patent US11291624B2, “Compositions comprising active botanical ingredients” (CONOPCO, INC., priority 2018, dated 2022)
